From ChEMBL document CHEMBL1126608

The chains behind the UniProt entries cited, without tags or fusion partners. Where a name states a change or a piece, a line headed by the entry shows the natural chain unless it says otherwise.
UniProt P08172, whole entry, looked up: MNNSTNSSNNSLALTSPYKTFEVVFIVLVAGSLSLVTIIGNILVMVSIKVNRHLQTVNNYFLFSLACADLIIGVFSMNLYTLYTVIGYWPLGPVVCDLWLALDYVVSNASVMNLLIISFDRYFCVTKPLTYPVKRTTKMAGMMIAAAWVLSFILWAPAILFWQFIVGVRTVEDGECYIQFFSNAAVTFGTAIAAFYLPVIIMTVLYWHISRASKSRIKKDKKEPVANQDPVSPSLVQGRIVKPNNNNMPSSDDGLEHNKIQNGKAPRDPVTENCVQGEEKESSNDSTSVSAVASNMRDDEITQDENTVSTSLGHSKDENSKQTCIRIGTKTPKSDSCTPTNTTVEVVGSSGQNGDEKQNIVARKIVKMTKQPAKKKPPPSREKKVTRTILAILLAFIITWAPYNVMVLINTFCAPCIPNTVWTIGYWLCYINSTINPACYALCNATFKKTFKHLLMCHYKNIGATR
UniProt P20309: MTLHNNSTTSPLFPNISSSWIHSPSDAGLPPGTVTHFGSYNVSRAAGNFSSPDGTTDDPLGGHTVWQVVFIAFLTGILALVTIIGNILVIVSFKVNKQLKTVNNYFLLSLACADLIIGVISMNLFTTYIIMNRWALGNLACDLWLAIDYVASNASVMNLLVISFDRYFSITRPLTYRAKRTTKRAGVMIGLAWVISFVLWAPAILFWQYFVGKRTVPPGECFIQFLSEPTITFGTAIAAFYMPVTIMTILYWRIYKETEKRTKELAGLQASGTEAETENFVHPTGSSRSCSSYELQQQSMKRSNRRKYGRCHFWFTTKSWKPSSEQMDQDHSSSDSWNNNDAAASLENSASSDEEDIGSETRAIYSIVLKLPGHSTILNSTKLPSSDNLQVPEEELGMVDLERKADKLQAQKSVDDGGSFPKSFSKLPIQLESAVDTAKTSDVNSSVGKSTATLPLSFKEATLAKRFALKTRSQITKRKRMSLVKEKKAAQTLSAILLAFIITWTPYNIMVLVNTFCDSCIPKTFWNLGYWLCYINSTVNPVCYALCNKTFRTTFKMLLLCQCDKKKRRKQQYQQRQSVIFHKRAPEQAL
UniProt P08173: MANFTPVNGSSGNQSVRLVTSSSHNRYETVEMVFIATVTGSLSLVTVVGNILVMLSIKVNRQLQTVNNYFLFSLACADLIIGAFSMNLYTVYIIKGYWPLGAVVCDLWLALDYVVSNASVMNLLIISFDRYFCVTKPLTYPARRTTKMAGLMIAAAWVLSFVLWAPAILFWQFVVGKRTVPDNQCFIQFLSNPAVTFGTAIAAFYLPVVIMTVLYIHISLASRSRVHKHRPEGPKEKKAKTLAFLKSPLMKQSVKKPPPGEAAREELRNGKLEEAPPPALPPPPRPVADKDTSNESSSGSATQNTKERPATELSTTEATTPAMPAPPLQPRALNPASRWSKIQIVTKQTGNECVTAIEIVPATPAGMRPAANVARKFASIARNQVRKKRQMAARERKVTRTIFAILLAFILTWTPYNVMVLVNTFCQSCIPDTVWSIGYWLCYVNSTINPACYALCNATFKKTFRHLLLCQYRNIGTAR
UniProt P11229: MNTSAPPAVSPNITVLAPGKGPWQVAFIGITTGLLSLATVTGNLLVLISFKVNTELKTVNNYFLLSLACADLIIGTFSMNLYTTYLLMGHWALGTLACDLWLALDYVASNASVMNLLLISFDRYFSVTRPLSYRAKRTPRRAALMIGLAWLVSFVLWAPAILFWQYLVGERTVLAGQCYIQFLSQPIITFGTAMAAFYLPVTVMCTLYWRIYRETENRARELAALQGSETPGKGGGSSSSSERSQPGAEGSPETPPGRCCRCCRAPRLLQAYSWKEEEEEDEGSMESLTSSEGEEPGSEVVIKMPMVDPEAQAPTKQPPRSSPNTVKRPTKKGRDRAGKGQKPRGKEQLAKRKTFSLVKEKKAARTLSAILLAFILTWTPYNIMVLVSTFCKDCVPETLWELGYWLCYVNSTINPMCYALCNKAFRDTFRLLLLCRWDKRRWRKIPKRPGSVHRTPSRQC
UniProt P08912: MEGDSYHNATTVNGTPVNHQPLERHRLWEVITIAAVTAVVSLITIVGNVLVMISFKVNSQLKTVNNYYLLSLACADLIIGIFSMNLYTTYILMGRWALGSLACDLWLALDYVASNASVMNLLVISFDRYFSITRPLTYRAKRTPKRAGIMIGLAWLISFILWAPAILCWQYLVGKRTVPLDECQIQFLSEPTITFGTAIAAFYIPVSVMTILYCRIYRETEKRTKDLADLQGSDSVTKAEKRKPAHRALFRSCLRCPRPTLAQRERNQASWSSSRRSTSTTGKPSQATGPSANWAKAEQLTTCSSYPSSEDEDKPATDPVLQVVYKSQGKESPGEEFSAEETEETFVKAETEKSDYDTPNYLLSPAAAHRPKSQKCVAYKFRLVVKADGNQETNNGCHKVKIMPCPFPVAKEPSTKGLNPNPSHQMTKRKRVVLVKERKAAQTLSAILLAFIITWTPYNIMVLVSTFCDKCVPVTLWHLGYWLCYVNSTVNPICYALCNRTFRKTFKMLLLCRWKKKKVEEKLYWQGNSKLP

Assays:
[1] = target: Muscarinic acetylcholine receptor M3 (Cavia porcellus) (UniProt Q8VH26); experiment: Antagonist activity against muscarinic M3 receptor from guinea pig ileum; format: functional, tissue-based
Summary of the method: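 Longitudinal guinea pig ileum strips suspended in oxygenated Krebs buffer; carbachol concentration-response curves with or without at least three increasing antagonist concentrations (5-min preincubation). Contraction as % of maximal carbachol response without antagonist.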

[2] = target: Muscarinic acetylcholine receptor M2 (Homo sapiens) (UniProt P08172); experiment: Antagonist activity against muscarinic M2 receptor from guinea pig atria; format: functional; conditions: Cavia porcellus; target entry is the homologue from another species
Summary of the method: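 Isolated guinea pig right atria in Krebs-Henseleit buffer; cumulative carbachol concentration-rate response curves before and after at least three increasing antagonist concentrations (5-min preincubation). Responses as % of maximal carbachol-induced rate inhibition without antagonist.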

[3] = target: Muscarinic acetylcholine receptor (Homo sapiens) (UniProt P20309+P08173+P11229+P08172+P08912); conditions: Cavia porcellus
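Throughout, for ID50: in vivo guinea pig assay: antimuscarinic effect measured as reduced salivation after carbachol stimulation.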

## CCN1CCN(CC(=O)C(O)(c2ccccc2)C2CCC2)CC1 (stereo unspecified)
[1]
  Kb: 124 nM
[2]
  Kb: 223 nM
[3]
  ID50: 2.06 mg/kg

## C#CCN1CCN(CC(=O)C(O)(c2ccccc2)C2CCC2)CC1 (stereo unspecified)
[1]
  Kb: 536 nM
[2]
  Kb: > 30000 nM
[3]
  ID50: 46.9 mg/kg
